{"source": "patent US20180193659A1", "about": "“PHOTODYNAMIC THERAPY LIGHT IRRADIATING DEVICE AND LIGHT IRRADIATING METHOD” (Public University Corporation Nagoya City University, priority 2015, published 2018)", "tested_on": "HaCaT cells (human skin keratinocyte cell line)", "details": "1 mM 5-ALA; 405 nm + 545 nm and 405 nm + 635 nm"}
{"smiles": "NCC(=O)CCC(=O)O", "note": "[5-ALA, δ-aminolevulinic acid]", "values": [{"measurement": "amount of irradiation at which a synergistic effect is obtained", "value": "≥ 0.9", "unit": "J/cm^2"}]}
